Screening data (PubChem BioAssay)
In the library only some 1.6% were active in any assay of this set; here they are far more common.
ARNT TACC3 PPI – ARNT/TACC3 interaction disruption | Q9Y6A5 | AlphaScreen His-ARNT PAS-B/GST-TACC3 binding, luminescence; TACC3 fragment carries E629A point mutation | inhibition, % at 9.99 µM | 390,000 tested, 0.66% active;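 active means mean inhibition of replicates at least 50% and at least half of replicates each reaching 50%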;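 further: 0% = complete ARNT plus TACC3 wells and 100% = ARNT alone without TACC3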
CAL PDZ FP-1 – inhibitors of human CAL PDZ peptide binding; Q9HD26; inhibition, % at 24.9 µM; purified CAL PDZ, TMR-peptide fluorescence polarization, 1 h; AID 602252; 300,000 tested, 0.92% active;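 active means mean inhibition of at least 30% with at least half of replicates also reaching 30%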;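 further: 0% = DMSO neutral control and 100% = excess unlabeled competitor peptide PRC23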
Vif imaging – blocks HIV Vif function; HEK293T cells, Vif self-association by quenched fluorescence, imaging, 24 h; inhibition, % at 7.49 µM; 340,000 tested, 0.35% active; AID 602346; in the data active means inhibition above about 50%, passing the limit was not always enough
PglD DTNB – blocks C. jejuni PglD acetyltransferase activity | inhibition, % at 12.5 µM | purified PglD enzyme, DTNB colorimetric CoA detection | 360,000 tested, 0.098% active; in the data active means inhibition above about 16%, passing the limit was not always enough
CAL PDZ FP-2 – inhibitors of human CAL PDZ peptide binding | 330,000 tested, 0.02% active | inhibition, % at 20 µM | purified CAL PDZ, TMR-peptide fluorescence polarization, 1 h | Q9HD26;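 active means highest replicate inhibition of at least 40%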;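 further: plate controls were DMSO neutral control wells for no effect and unlabeled competitor peptide control wells for full effect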
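System: purified tagged CAL PDZ domain construct (CerCALP). Schedule: 1 h incubation at room temperature before polarization reading. Medium: 25 mM sodium phosphate pH 7.4, 150 mM NaCl, TCEP, IgG, Thesit. Read-out: percent inhibition from loss of millipolarization. Measured by: FP readout, S and P plane fluorescence. Probe or stimulus: fluorescent TMR peptide probe.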
Yeast UUG start – modulators of yeast start codon fidelity, primary screen, whole organism, S. cerevisiae, single point, plate reader | AID 602363, 2012 | S. cerevisiae UUG-firefly luciferase reporter, luminescence/redox ratio | activity score, % at 18.7 µM | hit rate 0.13% among 350,000;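 active = replicate mean at a twofold rise or more, about +100% in these data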;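 also: firefly luciferase made from a UUG start codon reports start codon fidelity; reporter light over untreated wells divided by growth signal over untreated wells; some hits fall short of that in this replicate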
ARNT Alpha ctr-1 – interferes with AlphaScreen signal, flagging false ARNT-TACC3 hits; His-ARNT PASB-GST AlphaScreen artifact counter-screen, luminescence; shares compounds with ARNT TACC3 PPI; AC50, µM (series often up to 68 µM), for inactives: at the top dose activity change, negative = signal decrease; 1,200 tested, 50% active;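 active means every separate test run was called active for a drop in luminescence, with AC50 within twice the top valid dose, actives reach about 71 µM in these data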
ARNT Alpha ctr-2 – produces AlphaScreen artifacts in ARNT-TACC3 counter-screen; 45 tested, 70% active; Dual-tagged His-ARNT PASB-GST AlphaScreen artifact counter-screen; shares compounds with ARNT TACC3 PPI; AC50, µM;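 active means luminescence drop, with half-maximal potency fitted within twice the sample's top valid dose, cut at about 70 µM in these data; inactive means the rest, including signal moving the wrong way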
* hit, by the source's call; / = no result given; [ ] = dose if it differs, or a comment.

SMILES	ARNT TACC3 PPI	CAL PDZ FP-1	Vif imaging	PglD DTNB	CAL PDZ FP-2	Yeast UUG start	ARNT Alpha ctr-1	others
C[C@@H]1CN([C@@H](C)CO)C(=O)c2cc(/C=C/c3ccccc3)cnc2O[C@@H]1CN(C)C	-2.1	/	/	-3.5	/	-2.9	/
CC(Oc1ccc(F)cc1)C(=O)Nc1nc(-c2ccccn2)cs1 (stereo not drawn)	63.3*	5.6	-14.1	-5.6	-2.1	-39.9	65.9µM*
O=C(Nc1nc(-c2ccccn2)cs1)c1ccco1	59.0*	/	5.7	/	-0.2	/	26.1µM*	ARNT Alpha ctr-2=9.78*
COc1ccc(NC(=O)N(C)C[C@H]2Oc3ccc(NC(=O)Cn4cnnn4)cc3C(=O)N([C@@H](C)CO)C[C@@H]2C)cc1	-12.0	/	/	5.7	/	-9.2	/
COc1ccc(NC(=O)N(C)C[C@@H]2Oc3c(NC(=O)NC4CCCCC4)cccc3C(=O)N([C@H](C)CO)C[C@@H]2C)cc1	12.1	/	/	-5.8	/	/	/
CC(=O)NCCc1nc2ccccc2[nH]1	-5.2	/	10.8	-0.8	-1.1	-6.5	/
CN(CC(=O)O)Cc1nc2ccccc2[nH]1	88.3*	-1.9	-5.3	1.5	-1.4	4.0	50.9µM*
C[C@@H]1CN([C@H](C)CO)S(=O)(=O)c2ccc(C3=CCCCC3)cc2O[C@H]1CN(C)Cc1ccccc1F	-0.8	/	/	7.1	/	-3.3	/
Cc1ccc(S(=O)(=O)Nc2ccc3c(c2)C(=O)N([C@@H](C)CO)C[C@H](C)[C@@H](CN(C)Cc2ccccc2)O3)cc1	-8.5	/	/	0.7	/	/	/
COc1ccc(NCc2ccccc2[N+](=O)[O-])cc1OC	11.3	0.9	-0.4	/	0.5	/	/
COc1cc2c(cc1OC)C(Cc1ccccc1[N+](=O)[O-])=NCC2	39.3*	-4.3	-5.8	/	-0.8	/	-10.2%
c1ccc(-c2nn[nH]n2)nc1	66.9*	-8.8	-2.6	/	-0.6	/	53.4µM*
c1ccc(-c2nn[nH]n2)cc1	-8.1	/	-2.5	/	-0.4	/	/
c1ccc(-c2n[nH]c(-c3ccccn3)n2)nc1	59.6*	4.5	-4.0	2.2	0.0	-35.4	7.5µM*
S=c1nc(-c2ccccn2)c(-c2ccccn2)n[nH]1	/	/	2.9	/	/	/	/
CCCC(=O)Nc1ccc2c(c1)C(=O)N(C)C[C@@H](OC)[C@H](C)CN(Cc1ccccc1F)[C@@H](C)CO2	-2.5	/	/	-0.8	/	3.0	/
N#Cc1ccc(C(=O)Nc2nnc(-c3ccccn3)o2)cc1	54.4*	-0.7	2.1	5.5	0.9	-14.0	-21.9%
O=C(Nc1nnc(-c2ccncc2)o1)c1ccccc1	51.6*	-1.3	-0.7	/	-1.2	/	-15.0%
CC1CCN(S(=O)(=O)c2ccc(C(=O)Nc3nnc(-c4ccno4)o3)cc2)CC1	/	/	/	/	/	/	/	ARNT Alpha ctr-2=>136
O=C(Nc1nnc(-c2ccncc2)o1)c1ccccc1F	1.1	-2.8	1.1	-0.4	-0.1	-10.5	/

Brought forward from above: six compounds, then new ones.
SMILES	ARNT TACC3 PPI	CAL PDZ FP-1	Vif imaging	PglD DTNB	CAL PDZ FP-2	Yeast UUG start	ARNT Alpha ctr-1	others
S=c1nc(-c2ccccn2)c(-c2ccccn2)n[nH]1	/	/	2.9	/	/	/	/
CCCC(=O)Nc1ccc2c(c1)C(=O)N(C)C[C@@H](OC)[C@H](C)CN(Cc1ccccc1F)[C@@H](C)CO2	-2.5	/	/	-0.8	/	3.0	/
N#Cc1ccc(C(=O)Nc2nnc(-c3ccccn3)o2)cc1	54.4*	-0.7	2.1	5.5	0.9	-14.0	-21.9%
O=C(Nc1nnc(-c2ccncc2)o1)c1ccccc1	51.6*	-1.3	-0.7	/	-1.2	/	-15.0%
CC1CCN(S(=O)(=O)c2ccc(C(=O)Nc3nnc(-c4ccno4)o3)cc2)CC1	/	/	/	/	/	/	/	ARNT Alpha ctr-2=>136
O=C(Nc1nnc(-c2ccncc2)o1)c1ccccc1F	1.1	-2.8	1.1	-0.4	-0.1	-10.5	/
CCOC(=O)N1CCN(S(=O)(=O)c2ccc(C(=O)Nc3nnc(C4CC4)o3)cc2)CC1	61.2*	-0.8	-27.0	/	-1.3	/	-42.0%
CC(=O)Nc1nnc(-c2ccccn2)o1	15.4	1.0	2.3	/	-2.8	/	/
CCOC(=O)N1CCN(S(=O)(=O)c2ccc(C(=O)Nc3nnc(CC)o3)cc2)CC1	-0.8	-0.9	-3.0	-3.1	-0.3	-27.8	/
COCCNC(=O)C[C@H]1CC[C@@H](NC(=O)NC2CCCC2)[C@H](CO)O1	0.4	/	/	2.9	/	-4.6	/
CC1CCN(S(=O)(=O)c2ccc(C(=O)Nc3nnc(-c4ccccn4)o3)cc2)CC1	41.6	0.9	16.7	/	-1.9	/	/	ARNT Alpha ctr-2=>136
CC1CCN(S(=O)(=O)c2ccc(C(=O)Nc3ncccc3O)cc2)CC1	-6.9	-7.9	8.8	-4.2	-2.2	-3.9	/
O=C(N/N=C/c1cccc2nccnc12)c1ccccc1O	58.7*	/	-2.9	/	-3.9	/	30.2µM*
Cc1[nH]n(-c2ccccc2)c(=O)c1C(c1ccc(O)c([N+](=O)[O-])c1)c1c(C)[nH]n(-c2ccccc2)c1=O	10.3*	-1.1	-10.2	-3.4	1.4	-17.8	-9.1%
C[C@@H]1CN([C@H](C)CO)C(=O)c2cc(-c3ccccc3)cnc2O[C@H]1CN(C)C(=O)C1CCOCC1	-8.9	/	/	-0.2	/	-7.9	/
CCn1c(Cc2ccccc2)nnc1SCC(=O)Nc1ccc(N)cc1	57.2*	-1.0	-0.6	-1.6	0.2	-11.2	-10.2%
CCn1c(Cc2ccccc2)nnc1SCC(=O)Nc1ccc(OC)cc1	-3.2	0.4	3.9	2.4	/	-23.3	/
CC(=O)NC(c1cc(Cl)c2cccnc2c1O)C(C)C (stereo not drawn)	58.2*	6.1	-2.4	1.1	-0.4	-42.0	38.3µM*
CCCC(=O)NC(c1cccs1)c1cc([N+](=O)[O-])c2cccnc2c1O (stereo not drawn)	58.2*	/	-5.1	2.4	-0.2	-23.1	9.85µM*
O=C(CCc1ccccc1)NC(c1cccs1)c1cc(Cl)c2cccnc2c1O (stereo not drawn)	-5.1	-0.8	-38.8	/	-2.5	/	/
CC(=O)NC(c1cccs1)c1cc([N+](=O)[O-])c2cccnc2c1O (stereo not drawn)	59.7*	-5.8	-1.7	/	-2.4	/	6.94µM*
O=C(C[C@H]1C=C[C@@H](NC(=O)Nc2ccc3c(c2)OCO3)[C@H](CO)O1)NCc1ccc(Cl)cc1	23.6*	/	/	-0.6	/	-7.3	-16.5%[42 µM]
COc1ccc(-c2nnc(SCC(=O)NC3CC3)o2)cc1	active	-3.3	-2.4	4.6	0.7	-4.1	1.2%
COCC(=O)N(C)C[C@@H]1Oc2ncc(C#C[C@@H](C)O)cc2C(=O)N([C@@H](C)CO)C[C@H]1C	-5.2	/	/	2.4	/	-0.3	/
O=C(C[C@@H]1C[C@H]2c3cc(NC(=O)CC4CC4)ccc3O[C@H]2[C@H](CO)O1)NCc1ccncc1	4.6	/	/	-1.7	/	-4.9	/
O=C(C[C@@H]1C[C@H]2c3cc(NC(=O)NC4CCCCC4)ccc3O[C@H]2[C@@H](CO)O1)NCc1ccccc1	-11.5	/	/	-1.0	/	0.0	/
O=C(C[C@H]1C[C@H]2c3cc(NC(=O)NC4CCCCC4)ccc3O[C@H]2[C@H](CO)O1)NCc1ccccc1	active	/	/	2.0	/	16.1	1.3%[38 µM]
N#CC1=C(N)Oc2c(ccc3cccnc23)C1c1cccnc1 (stereo not drawn)	54.6*	-1.5	2.2	-2.6	-1.3	-31.7	41.4µM*
Cc1ccc2cc(C3C(C#N)=C(N)Oc4c3ccc3cccnc43)c(=O)[nH]c2c1 (stereo not drawn)	52.4*	/	3.3	-6.4	-1.5	-22.3	51.7µM*
c1ccc(N=Nc2ccc3cccccc2-3)cc1	56.8*	/	0.2	-2.8	-0.8	-28.4	3.21µM*
